From patent publication EP0562832A1, “Indole and indazole derivatives, for the treatment and prophylaxis of cerebral disorders, their preparation and their use” (priority 1992, dated 1993)
pIC50: −log10 of the molar value.

Target: T1, acetylcholinesterase (Mus musculus, UniProt P21836)
T1 construct: The mouse brain was homogenised by means of a 5-fold amount of a 100 mM phosphate buffer (pH 8.0) to prepare an enzyme sample; from tissue; host or cells: brain of male ddY mice, 5 to 7 weeks old (Japan SLC)
T1 sequence (P21836 32-614): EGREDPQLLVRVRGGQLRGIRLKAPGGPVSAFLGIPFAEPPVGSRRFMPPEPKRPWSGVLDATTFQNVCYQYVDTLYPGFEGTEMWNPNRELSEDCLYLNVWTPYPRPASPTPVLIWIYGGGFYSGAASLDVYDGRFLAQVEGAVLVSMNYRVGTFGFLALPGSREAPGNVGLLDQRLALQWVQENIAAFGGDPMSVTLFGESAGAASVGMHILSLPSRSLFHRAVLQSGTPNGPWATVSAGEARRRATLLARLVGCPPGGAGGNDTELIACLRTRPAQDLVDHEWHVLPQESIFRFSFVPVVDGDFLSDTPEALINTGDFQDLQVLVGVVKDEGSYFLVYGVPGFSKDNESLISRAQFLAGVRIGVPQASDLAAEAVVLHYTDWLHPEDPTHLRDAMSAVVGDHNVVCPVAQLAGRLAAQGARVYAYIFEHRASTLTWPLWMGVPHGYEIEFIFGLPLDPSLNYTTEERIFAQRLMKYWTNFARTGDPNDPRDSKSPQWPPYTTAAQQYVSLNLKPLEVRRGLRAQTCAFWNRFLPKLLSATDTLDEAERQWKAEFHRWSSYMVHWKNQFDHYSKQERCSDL
Experiment: Assay of acetylcholinesterase inhibitory activity (Elman's method, mouse brain homogenate)
Format: biochemical
Settings: 100 mM phosphate buffer (pH 8.0), incubated for 30 minutes at room temperature, acetylthiocholine as substrate, read-out: Acetylcholinesterase inhibiting activity (IC₅₀)

Substance: Eseline [reference compound]
- pIC50: 8.00
